Molecular target: T1, Glucose-induced degradation protein 4 homolog (Homo sapiens) (UniProt Q8IVV7)
T1 sequence (whole entry): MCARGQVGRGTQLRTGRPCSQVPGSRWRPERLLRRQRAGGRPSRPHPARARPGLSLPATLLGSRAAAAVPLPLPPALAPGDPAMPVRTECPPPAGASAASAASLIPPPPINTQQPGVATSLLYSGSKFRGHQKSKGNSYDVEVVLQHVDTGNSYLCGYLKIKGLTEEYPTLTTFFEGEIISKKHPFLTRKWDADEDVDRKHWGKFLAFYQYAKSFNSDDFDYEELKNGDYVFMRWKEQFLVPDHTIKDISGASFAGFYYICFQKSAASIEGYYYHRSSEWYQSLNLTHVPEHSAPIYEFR

| SMILES | ΔTm |
| --- | --- |
| Clc1ccc(NC2=NCC(CI)S2)cc1 (configuration not stated) | -1.7 °C |
| ICC1CN=C(Nc2ccccc2)S1 (configuration not stated) | -0.6 °C |
